# In ChEMBL document CHEMBL4145695, “Histone Deacetylase 6-Selective Inhibitors and the Influence of Capping Groups on Hydroxamate-Zinc Denticity” (J Med Chem, 2018):
# Species on record: Homo sapiens
# Experiment: Selectivity index, ratio of IC50 for inhibition of human recombinant HDAC1 to IC50 for inhibition of human recombinant HDAC6
smiles,measurement,value
CN(Cc1ccc(C(=O)NO)cc1F)CC12CC3CC(CC(C3)C1)C2,Ratio IC50,> 16000
